Measurements from paper PMC2920453 (Chemistry & biology, 2010).

The chains behind the UniProt entries cited, without tags or fusion partners. Where a name states a change or a piece, a line headed by the entry shows the natural chain unless it says otherwise. Residues count along the entry.
UniProt O60674, 849-1124 limits assumed: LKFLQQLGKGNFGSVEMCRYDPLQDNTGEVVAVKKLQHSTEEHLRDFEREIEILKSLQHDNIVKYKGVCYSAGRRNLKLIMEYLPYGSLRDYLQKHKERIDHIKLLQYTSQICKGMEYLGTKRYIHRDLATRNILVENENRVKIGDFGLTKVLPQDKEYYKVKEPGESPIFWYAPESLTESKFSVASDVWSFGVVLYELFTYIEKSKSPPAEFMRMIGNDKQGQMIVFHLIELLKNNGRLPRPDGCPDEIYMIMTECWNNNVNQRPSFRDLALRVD
UniProt P41212: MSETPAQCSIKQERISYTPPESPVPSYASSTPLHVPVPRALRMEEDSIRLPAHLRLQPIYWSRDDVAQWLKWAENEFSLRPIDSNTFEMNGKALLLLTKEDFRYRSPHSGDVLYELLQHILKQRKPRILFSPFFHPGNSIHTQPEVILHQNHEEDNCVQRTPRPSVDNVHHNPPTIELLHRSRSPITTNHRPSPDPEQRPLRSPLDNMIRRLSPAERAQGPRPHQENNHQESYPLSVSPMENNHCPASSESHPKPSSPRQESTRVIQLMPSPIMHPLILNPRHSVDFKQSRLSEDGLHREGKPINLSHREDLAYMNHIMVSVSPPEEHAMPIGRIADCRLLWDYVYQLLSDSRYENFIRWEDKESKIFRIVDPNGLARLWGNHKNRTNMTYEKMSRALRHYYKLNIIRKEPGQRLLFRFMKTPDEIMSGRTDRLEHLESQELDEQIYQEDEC
UniProt P51451, 241-494 limits assumed: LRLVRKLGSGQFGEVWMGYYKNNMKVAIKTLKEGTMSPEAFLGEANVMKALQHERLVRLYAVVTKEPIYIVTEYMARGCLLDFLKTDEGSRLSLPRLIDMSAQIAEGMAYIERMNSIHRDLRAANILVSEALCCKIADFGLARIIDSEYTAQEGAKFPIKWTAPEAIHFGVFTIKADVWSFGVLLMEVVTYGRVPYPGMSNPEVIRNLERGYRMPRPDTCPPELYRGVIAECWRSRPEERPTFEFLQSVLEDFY
UniProt P51813, 417-675 limits assumed: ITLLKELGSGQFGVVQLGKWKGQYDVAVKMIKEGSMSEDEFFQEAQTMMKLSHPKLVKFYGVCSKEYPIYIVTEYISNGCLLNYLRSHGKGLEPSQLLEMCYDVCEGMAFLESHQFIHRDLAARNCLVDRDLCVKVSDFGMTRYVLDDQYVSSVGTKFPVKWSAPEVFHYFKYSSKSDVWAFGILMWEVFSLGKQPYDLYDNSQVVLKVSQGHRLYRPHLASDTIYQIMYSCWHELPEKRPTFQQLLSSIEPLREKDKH

Key:
Details in all cases: 48 hours
[1] = molecular target: Tel-Jak2 transformed Ba/F3 cells (Homo sapiens, UniProt O60674+P41212)
[2] = molecular target: Tel-Blk transformed Ba/F3 cells (Homo sapiens, UniProt P41212+P51451)
[3] = molecular target: Tel-Bmx transformed Ba/F3 cells (Homo sapiens, UniProt P41212+P51813)

With `C=CC(=O)Nc1cccc(CN2C(=O)N(c3c(Cl)c(OC)cc(OC)c3Cl)Cc3cnc(NCCCCN(CC)CC)nc32)c1` [FIIN-1] as the compound, how does the EC50 [1] read?
The EC50 was 5000 nM.

And the EC50 [2]?
The EC50 was 2000 nM.

What about the EC50 [3] of the same compound?
The EC50 was 2000 nM.
